pIC50: −log10 of the molar value.
Assays:
HT29 = assay: In vitro anti-proliferative activity (NBB assay), HT29; format: cell-based
Experimental: (§1) Cells (4×10^3 cells/well) were seeded in a microtiter plate (96 wells) and incubated overnight before the treatment. […] After the media was removed, the cells were fixed with formaldehyde (3%; 50 μL) in PBS and stained with NBB reagent (0.05%, 0.1 M sodium acetate, 9% acetic acid; 50 μL) for overnight. The stained cells in each well were washed thrice gently with deionized water and solubilized in sodium hydroxide solution (50 mM; 100 μL). The cell viability was determined by measuring the absorbance of 620 nm in each well by microplate reader. The experiments were repeated in triplicate.
(§2) The methods are described as above (see Example 1), except using Cetuximab and the corresponding ADC-Au.

HT29 tumor = assay: In vivo antitumor activity, HT29 tumor-bearing mice; settings: Cetuximab 15 mg/kg
Experimental: (§3) All animal experiments are conducted under the guidelines approved by the Committee on the Use of Live Animals in Teaching and Research of the University of Hong Kong. Female BALB/cAnN-nu (nude) mice (5-8 weeks old) are housed in the Laboratory Animal Unit, The University of Hong Kong. The mice are freely access to food and water. HT29 colorectal cancer cells (5× 10^6) in PBS (100 μL) are injected into the right flanks of each mouse subcutaneously. […] The mice are treated with intravenous administration of a total of four doses on day 0, 3, 6 and 9. The tumor size and body weight are monitored during the treatment. After 12 days, the mice are sacrificed.

HCT116 = assay: In vitro anti-proliferative activity (NBB assay), HCT116; format: cell-based
Experimental: as §1, §2

pAkt (Ser473) = assay: Western blot of pAkt and Akt in NCI-N87 cells; format: cell-based; settings: treatment for 24 hours
[1] = tested on: HER2-negative MDB-MB-231 cells; assay: Flow cytometry cellular binding and uptake, HER2-negative cells; format: cell-based
Experimental: Cells (2×10^5 cells/tube) were suspended in FACS staining buffer (2% FBS in PBS) into a 1.5 mL eppendorf tube. They were incubated with Sacituzumab, ADC-Au or IgG control respectively in staining buffer (100 μL) at 4° C. After 1 h, the cell suspensions were centrifuged at 1500 rpm for 3 min at 4° C. and washed with staining buffer (1 mL) twice to discard unbound antibodies. The cells were then incubated with Alexa Fluor 594 goat anti-human secondary antibody at 4° C. for 1 h and then subject to centrifugation. The cells were washed twice again and were resuspended in staining buffer. The mean fluorescence intensities (MFI) were measured using Beckman Cytoflex S Flow Cytometer.

[2] = tested on: NCI-N87 gastric cancer xenograft; assay: In vivo anti-tumor effect, NCI-N87 gastric cancer xenograft; parameters: species or system mice; settings: Trastuzumab 10 mg/kg
Experimental: as §3, with “NCI-N87 gastric” for “HT29 colorectal”, “(4×10^6)” for “(5× 10^6)”, “1, 5, 8” for “0, 3, 6”, “12.” for “9.”, “18” for “12”

NCI-N87 = assay: In vitro anti-proliferative activity (NBB assay), NCI-N87; format: cell-based; settings: HER2-overexpressed
Experimental: as §1

MDA-MB-231 = assay: In vitro anti-proliferative activity (NBB assay), MDA-MB-231; format: cell-based
Experimental: as §1

[3] = Table 3, Example 2 (Cetuximab ADC), 72 h

pIC50 (HT29; [3])	pIC50 (HCT116; [3])	pIC50 (MDA-MB-231; Table 4, Example 3 (Trastuzumab ADC), 72 h)	Substance	cell growth inhibition HT29 (HT29; even up to 4 μM)	antitumor effect (HT29 tumor)	cell growth inhibition HCT116 (HCT116; even up to 4 μM)	intracellular pAkt (Ser473) (pAkt (Ser473))	total Akt levels (pAkt (Ser473))	uptake to MDB-MB-231 cells [1]	tumor growth [2]	cell growth inhibition NCI-N87 (NCI-N87)	cell growth inhibition MDA-MB-231 (MDA-MB-231; HER2-negative)
< 5.40	< 5.40	–	Cetuximab: EGFR-targeted monoclonal antibody (MCE)	not obvious	moderate antitumor effect	not obvious	–	–	–	–	–	–
–	–	< 5.40	Trastuzumab: HER2-targeted monoclonal antibody (MCE)	–	–	–	downregulation	not affected	but not	obvious tumor growth inhibition	showed cell growth inhibition	but not

From patent US20260241028A1, “METAL-BASED ANTIBODY-DRUG CONJUGATES AND METHODS OF MAKING AND USING THEREOF” (Laboratory for Synthetic Chemistry and Chemical Biology …, priority 2024, published 2026)
